These are literature values, as cited in patent US20160184401A1, “NON-AGGLOMERATING BIOCONJUGATES OF AMYLIN AND AMYLIN-MIMETIC COMPOUNDS, COMPOSITIONS COMPRISING THE SAME, AND MAKING AND USE THEREOF” (UNIVERSIDADE FEDERAL DO RIO DE JANEIRO, priority 2013, published 2016).

SMILES strings stand for the structures.

The conditions of the data set: human, in vivo; cited from earlier work.

Regarding `CC[C@H](C)[C@H](NC(=O)[C@@H]1CCCN1C(=O)CNC(=O)[C@H](Cc1ccccc1)NC(=O)[C@H](CC(N)=O)NC(=O)[C@H](CC(N)=O)NC(=O)[C@H](CO)NC(=O)[C@H](CO)NC(=O)[C@H](Cc1c[nH]cn1)NC(=O)[C@@H](NC(=O)[C@H](CC(C)C)NC(=O)[C@H](Cc1ccccc1)NC(=O)[C@H](CC(N)=O)NC(=O)[C@H](C)NC(=O)[C@H](CC(C)C)NC(=O)[C@H](CCCNC(=N)N)NC(=O)[C@H](CCC(N)=O)NC(=O)[C@@H](NC(=O)[C@H](C)NC(=O)[C@@H]1CSSC[C@H](NC(=O)[C@@H](N)CCCCN)C(=O)N[C@@H](CC(N)=O)C(=O)N[C@@H]([C@@H](C)O)C(=O)N[C@@H](C)C(=O)N[C@@H]([C@@H](C)O)C(=O)N1)[C@@H](C)O)C(C)C)C(=O)N[C@@H](CC(C)C)C(=O)N1CCC[C@H]1C(=O)N1CCC[C@H]1C(=O)N[C@H](C(=O)N[C@@H](CC(N)=O)C(=O)N[C@H](C(=O)NCC(=O)N[C@@H](CO)C(=O)N[C@@H](CC(N)=O)C(=O)N[C@H](C(=O)N[C@@H](Cc1ccc(O)cc1)C(N)=O)[C@@H](C)O)C(C)C)[C@@H](C)O` [pramlintide], the plasma half-life was 10 to 15 min.
